Data reported in patent US10906910B2, “Substituted bicyclic pyrimidine compounds with tubulin and multiple receptor inhibition” (Duquesne University of the Holy Spirit, priority 2014, dated 2021).

The chains behind the UniProt entries cited, without tags or fusion partners. Residues count along the entry.
UniProt P09619, 33-1106, species assumed: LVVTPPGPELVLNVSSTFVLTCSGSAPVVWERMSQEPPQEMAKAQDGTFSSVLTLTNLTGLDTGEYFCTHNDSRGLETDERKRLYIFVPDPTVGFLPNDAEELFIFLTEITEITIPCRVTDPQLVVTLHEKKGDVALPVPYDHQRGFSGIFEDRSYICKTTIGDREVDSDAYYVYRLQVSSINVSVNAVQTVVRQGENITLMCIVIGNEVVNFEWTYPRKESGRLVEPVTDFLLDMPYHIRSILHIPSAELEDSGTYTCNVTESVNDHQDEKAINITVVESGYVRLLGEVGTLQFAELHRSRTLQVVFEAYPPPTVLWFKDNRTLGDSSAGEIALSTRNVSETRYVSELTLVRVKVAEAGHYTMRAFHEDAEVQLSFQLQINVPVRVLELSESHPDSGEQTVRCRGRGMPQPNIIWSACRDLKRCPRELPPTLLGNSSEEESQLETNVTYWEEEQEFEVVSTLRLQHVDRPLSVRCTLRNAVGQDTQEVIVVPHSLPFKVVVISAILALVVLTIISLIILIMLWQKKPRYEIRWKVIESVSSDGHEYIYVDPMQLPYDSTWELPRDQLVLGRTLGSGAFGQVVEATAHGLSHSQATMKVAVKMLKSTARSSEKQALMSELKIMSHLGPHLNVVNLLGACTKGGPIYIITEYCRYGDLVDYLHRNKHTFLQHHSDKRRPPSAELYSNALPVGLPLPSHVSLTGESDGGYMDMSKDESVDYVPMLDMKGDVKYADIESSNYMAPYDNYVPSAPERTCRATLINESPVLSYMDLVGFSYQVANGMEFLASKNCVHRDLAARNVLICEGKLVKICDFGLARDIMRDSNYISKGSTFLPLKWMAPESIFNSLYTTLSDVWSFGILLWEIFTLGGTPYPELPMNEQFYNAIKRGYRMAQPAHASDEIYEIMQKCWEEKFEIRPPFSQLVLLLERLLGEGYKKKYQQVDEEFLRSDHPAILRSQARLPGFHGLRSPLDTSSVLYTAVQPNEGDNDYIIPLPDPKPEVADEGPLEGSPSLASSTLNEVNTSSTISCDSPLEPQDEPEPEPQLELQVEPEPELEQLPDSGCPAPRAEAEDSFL

Target: PDGFRβ (Homo sapiens, UniProt P09619)
Assay: PDGFRβ kinase inhibition, whole-cell assay
Format: cell-based
Settings: read-out: kinase inhibition IC50 [whole-cell assays] PDGFRβ

IC50: 3.75 nM
Compound: CN(C)c1ccc(/C=C2\C(=O)Nc3ccccc32)cc1 [DMBI, reference compound]
